In patent US20040259082A1 (priority 2001, published 2004):

Tests used:
[1] = system: single-stranded M13 DNA template; assay: Strand-displacement DNA synthesis; settings: primed M13 ssDNA; 200 μM dNTPs; 1 hr at 37° C.
[2] = Primer extension assay of T7 pol-mutant; type: biochemical; settings: primer extension assay of FIG. 9
Description: FIG. 11 illustrates the lack of polymerase activity of the T7 pol-mutant. The T7 pol-mutant was tested for activity using the primer extension assay of FIG. 9. (Lane 1) Pol+control, 4 dNTPs. (Lane 2) Pol+control, dTTP only. (Lane 3) Pol+control, no dNTPs. (Lane 4) complete reaction with pol-mutant.
Asp-654 chelates the active-site Mg++ in T7 polymerase (see, Doublie et al., Structure, 7:R31-R35 (1999)), so changing it to a non-acidic residue should inactivate the polymerization function. Stratagene's QuikChange kit was used to make a D654P mutation.

φ29 polymerase: purified C-Terminal His-tagged φ29 polymerase from clone SEQ. ID. NO: 37
strand-displacement synthesis [1]: production of M13 concatemers too large to enter the gel

B1: D654P: polymerase-defective D654P mutant of T7 DNA polymerase exo- (protein, UniProt P00581 1-704, looked up, variant D654P)
DNA-directed DNA polymerase: MIVSDIEANALLESVTKFHCGVIYDYSTAEYVSYRPSDFGAYLDALEAEVARGGLIVFHNGHKYDVPALTKLAKLQLNREFHLPRENCIDTLVLSRLIHSNLKDTDMGLLRSGKLPGKRFGSHALEAWGYRLGEMKGEYKDDFKRMLEEQGEEYVDGMEWWNFNEEMMDYNVQDVVVTKALLEKLLSDKHYFPPEIDFTDVGYTTFWSESLEAVDIEHRAAWLLAKQERNGFPFDTKAIEELYVELAARRSELLRKLTETFGSWYQPKGGTEMFCHPRTGKPLPKYPRIKTPKVGGIFKKPKNKAQREGREPCELDTREYVAGAPYTPVEHVVFNPSSRDHIQKKLQEAGWVPTKYTDKGAPVVDDEVLEGVRVDDPEKQAAIDLIKEYLMIQKRIGQSAEGDKAWLRYVAEDGKIHGSVNPNGAVTGRATHAFPNLAQIPGVRSPYGEQCRAAFGAEHHLDGITGKPWVQAGIDASGLELRCLAHFMARFDNGEYAHEILNGDIHTKNQIAAELPTRDNAKTFIYGFLYGAGDEKIGQIVGAGKERGKELKKKFLENTPAIAALRESIQQTLVESSQWVAGEQQVKWKRRWIKGLDGRKVHVRSPHAALNTLLQSAGALICKLWIIKTEEMLVEKGLKHGWDGDFAYMAWVHPEIQVGCRTEEIAQVVIETAQEAMRWVGDHWNFRCLLDTEGKMGPNWAICH
modifications: exonuclease-deficient, changes unstated
polymerase activity [2]: no polymerase activity
